The target of experiment [1] is human A1 adenosine receptor (hA1) (Homo sapiens (Human), UniProt P30542). Description: Binding affinity for human A1 adenosine receptor ([3H]CCPA, CHO cells). Conditions: nM ± SEM.
Experiment [2] addresses human A2A adenosine receptor (hA2A) (Homo sapiens (Human), UniProt P29274). Description: Binding affinity for human A2A adenosine receptor ([3H]CGS-21680, HEK 293 cell). Particulars: nM ± SEM.

Sequences of proteins named here, by UniProt entry; tags and fusion partners are left off.
UniProt P30542, whole entry: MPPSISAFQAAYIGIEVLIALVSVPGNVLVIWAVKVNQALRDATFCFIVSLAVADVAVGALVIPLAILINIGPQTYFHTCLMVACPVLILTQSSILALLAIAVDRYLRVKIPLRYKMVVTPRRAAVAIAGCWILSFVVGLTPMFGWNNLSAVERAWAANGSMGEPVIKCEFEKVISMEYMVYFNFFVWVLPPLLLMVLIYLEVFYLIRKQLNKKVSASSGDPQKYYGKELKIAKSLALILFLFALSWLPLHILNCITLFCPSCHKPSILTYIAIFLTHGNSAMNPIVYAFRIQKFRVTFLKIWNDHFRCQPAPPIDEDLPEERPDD

In the case of `OC1CS[C@@H](n2cnc3c(NCc4cccc(I)c4)ncnc32)C1O` (stereo in doubt) [Example 14, (2R,3R,4S)-2-(6-(3-Iodobenzylamino)-9H-purin-9-yl)tetrahydrothiophen-3,4-diol], the Ki (usually a measure of affinity in units of concentration, obtained from inhibition or displacement) amounted to 530 ± 97 nM in experiment [1] and 230 ± 65 nM in experiment [2].
